Results from patent EP4840868A1, “NOVEL DISACCHARIDE LINKER, PREPARATION METHOD THEREFOR AND USE THEREOF” (dated 2026).

Sequences of proteins named here, by UniProt entry; tags and fusion partners are left off. Residues count along the entry.
UniProt T1WGN1, 38-843 limits assumed: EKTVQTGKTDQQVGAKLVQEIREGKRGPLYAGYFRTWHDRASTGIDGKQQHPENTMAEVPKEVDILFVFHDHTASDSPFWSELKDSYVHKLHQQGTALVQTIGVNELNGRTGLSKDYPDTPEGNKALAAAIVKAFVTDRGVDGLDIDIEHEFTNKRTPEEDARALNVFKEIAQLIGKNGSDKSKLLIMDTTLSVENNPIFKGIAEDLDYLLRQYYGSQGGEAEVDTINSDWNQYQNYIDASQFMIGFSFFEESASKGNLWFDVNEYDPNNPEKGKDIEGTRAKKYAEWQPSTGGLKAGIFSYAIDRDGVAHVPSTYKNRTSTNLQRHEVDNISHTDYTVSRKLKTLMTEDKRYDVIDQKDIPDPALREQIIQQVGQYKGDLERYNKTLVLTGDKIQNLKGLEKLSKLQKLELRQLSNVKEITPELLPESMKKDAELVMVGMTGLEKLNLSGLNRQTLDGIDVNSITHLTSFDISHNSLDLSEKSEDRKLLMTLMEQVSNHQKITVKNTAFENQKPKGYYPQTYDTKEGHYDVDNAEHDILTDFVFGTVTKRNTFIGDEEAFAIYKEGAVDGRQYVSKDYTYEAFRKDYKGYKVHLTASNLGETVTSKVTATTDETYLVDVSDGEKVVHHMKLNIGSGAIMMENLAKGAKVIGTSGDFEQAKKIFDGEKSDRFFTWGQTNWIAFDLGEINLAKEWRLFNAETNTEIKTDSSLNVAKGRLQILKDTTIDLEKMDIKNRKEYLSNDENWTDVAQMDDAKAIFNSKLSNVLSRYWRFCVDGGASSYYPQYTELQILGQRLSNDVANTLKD
UniProt Q99Y92, 37-995 limits assumed: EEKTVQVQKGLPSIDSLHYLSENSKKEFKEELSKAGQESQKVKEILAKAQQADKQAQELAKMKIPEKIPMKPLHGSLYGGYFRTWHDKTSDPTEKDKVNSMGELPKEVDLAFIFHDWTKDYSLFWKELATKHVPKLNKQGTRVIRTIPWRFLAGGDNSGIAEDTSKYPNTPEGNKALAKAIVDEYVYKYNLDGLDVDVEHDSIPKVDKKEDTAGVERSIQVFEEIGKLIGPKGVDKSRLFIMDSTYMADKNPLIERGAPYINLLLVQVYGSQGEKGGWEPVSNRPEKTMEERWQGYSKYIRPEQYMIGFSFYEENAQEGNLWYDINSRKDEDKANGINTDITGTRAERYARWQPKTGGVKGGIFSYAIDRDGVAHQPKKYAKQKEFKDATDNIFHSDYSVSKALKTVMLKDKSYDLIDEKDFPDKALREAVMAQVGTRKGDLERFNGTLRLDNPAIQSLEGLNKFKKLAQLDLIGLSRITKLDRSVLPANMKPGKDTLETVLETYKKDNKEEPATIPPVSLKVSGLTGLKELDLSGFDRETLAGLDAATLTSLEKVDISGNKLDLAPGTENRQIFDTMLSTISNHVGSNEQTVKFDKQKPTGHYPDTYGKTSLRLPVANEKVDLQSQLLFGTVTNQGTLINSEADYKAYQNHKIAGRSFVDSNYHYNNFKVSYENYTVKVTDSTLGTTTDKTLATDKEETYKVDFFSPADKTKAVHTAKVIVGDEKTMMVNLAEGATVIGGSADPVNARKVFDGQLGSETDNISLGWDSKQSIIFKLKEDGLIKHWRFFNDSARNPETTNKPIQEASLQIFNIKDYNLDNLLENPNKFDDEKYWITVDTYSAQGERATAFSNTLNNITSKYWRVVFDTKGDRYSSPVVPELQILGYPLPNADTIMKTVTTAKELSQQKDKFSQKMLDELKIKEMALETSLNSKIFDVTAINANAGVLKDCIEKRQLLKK

How the values were obtained:
Endo S2 [1] = molecular target: T1, Endo S2 (Streptococcus pyogenes serotype M49, UniProt T1WGN1); test: Substrate specificity: transglycosylation of disaccharide linkers onto wild-type pertuzumab, LC-MS; conditions: Endo S2 0.4 mg/mL; wild-type pertuzumab 10 mg/mL; linker 1.67 mM; pH 7.4, 25°C; after 6 hours
Endo S [2] = molecular target: T2, Endo S (Streptococcus pyogenes serotype M1, UniProt Q99Y92); test: as above; conditions: Endo S 0.4 mg/mL; wild-type pertuzumab 10 mg/mL; linker 1.67 mM; pH 7.4, 25°C; after 6 hours
Endo Si [3] = test: as above; conditions: Endo Si 0.4 mg/mL; wild-type pertuzumab 10 mg/mL; linker 1.67 mM; pH 7.4, 25°C; after 6 hours
Endo Se2 [4] = test: as above; conditions: Endo Se2 0.4 mg/mL; wild-type pertuzumab 10 mg/mL; linker 1.67 mM; pH 7.4, 25°C; after 6 hours
Endo S2 [5] = molecular target: T1, Endo S2; test: Transglycosylation (transfer) activity toward disaccharide linkers, deglycosylated antibody, time course, reduced LC-MS; conditions: Endo S2 0.4 mg/mL, deglycosylated antibody 10 mg/mL, linker 1.67 mM, pH 7.4, 25°C
Protocol: (§1) A wild-type antibody comprising the Fc segment of SEQ ID NO: 5 was dissolved in a buffer containing 20 mM phosphate and 150 mM NaCl at pH 7.4 (10 mg/mL). Wild-type Endo S2 was added to a final concentration of 0.4 mg/mL for hydrolysis, followed by incubation overnight at 37°C. A deglycosylated antibody containing one N-acetylglucosamine or core-fucosylated N-acetylglucosamine was obtained through purification using Protein A magnetic beads.
(§2) The prepared deglycosylated antibody, disaccharide linker (i.e., compounds G0-G2), and wild-type endoglycosidase (i.e., Endo S, Endo S2, Endo Si, or Endo Se2) were used such that the concentrations of the respective components were sequentially 10 mg/mL, 1.67 mM (25 equivalents relative to the antibody concentration), and 0.4 mg/mL. The pH of the reaction system was adjusted to 7.4, and the reaction temperature was 25°C. At 0.5, 1, 2, 3, and 6 hours, 4 µL of sample was taken out, and 36 µL of PBS solution containing 0.1% formic acid was added to terminate the reaction, followed by analysis by reduced LC-MS.

Endo S [6] = molecular target: T2, Endo S; test: as above; conditions: for Transglycosylation efficiency (%): Endo S 0.4 mg/mL, deglycosylated antibody 10 mg/mL, linker 1.67 mM, pH 7.4, 25°C; for transglycosylation efficiency (in words): Endo S, deglycosylated antibody
Protocol: as §1, §2

Endo Si [7] = test: as above; conditions: Endo Si 0.4 mg/mL, deglycosylated antibody 10 mg/mL, linker 1.67 mM, pH 7.4, 25°C
Protocol: as §1, §2

Endo Se2 [8] = test: as above; conditions: Endo Se2 0.4 mg/mL, deglycosylated antibody 10 mg/mL, linker 1.67 mM, pH 7.4, 25°C
Protocol: as §1, §2

Which results are given for `CC1=N[C@H]2[C@@H](O1)O[C@H](CO)[C@@H](O[C@@H]1O[C@H](C=NOCCN=[N+]=[N-])[C@H](O)[C@H](O)[C@H]1O)[C@@H]2O`?
Transglycosylation efficiency (%) (Endo S2 [1]): >95%; Transglycosylation efficiency (%) (Endo S [2]): 56.4%; Transglycosylation efficiency (%) (Endo Si [3]): >95%; Transglycosylation efficiency (%) (Endo Se2 [4]): >95%; Transglycosylation efficiency (%) (Endo S2 [5]; 0.5 hours): 65.7%; Transglycosylation efficiency (%) (Endo S2 [5]; 1 hour): 82.7%; Transglycosylation efficiency (%) (Endo S2 [5]; 2 hours): 92.4%; Transglycosylation efficiency (%) (Endo S2 [5]; 3 hours): 94.8%; Transglycosylation efficiency (%) (Endo S2 [5]; 6 hours): 97.3%; Transglycosylation efficiency (%) (Endo S [6]; 0.5 hours): 15.7%; Transglycosylation efficiency (%) (Endo S [6]; 1 hour): 26.2%; Transglycosylation efficiency (%) (Endo S [6]; 2 hours): 36.6%; Transglycosylation efficiency (%) (Endo S [6]; 3 hours): 43.7%; Transglycosylation efficiency (%) (Endo S [6]; 6 hours): 56.4%; Transglycosylation efficiency (%) (Endo Si [7]; 0.5 hours): 89.3%; Transglycosylation efficiency (%) (Endo Si [7]; 1 hour): 97.1%; Transglycosylation efficiency (%) (Endo Si [7]; 2 hours): 97.8%; Transglycosylation efficiency (%) (Endo Si [7]; 3 hours): 97.8%; Transglycosylation efficiency (%) (Endo Si [7]; 6 hours): 97.6%; Transglycosylation efficiency (%) (Endo Se2 [8]; 0.5 hours): 96.6%; Transglycosylation efficiency (%) (Endo Se2 [8]; 1 hour): 97.9%; Transglycosylation efficiency (%) (Endo Se2 [8]; 2 hours): 98.0%; Transglycosylation efficiency (%) (Endo Se2 [8]; 3 hours): 97.2%; Transglycosylation efficiency (%) (Endo Se2 [8]; 6 hours): 96.2%

With `CC1=N[C@H]2[C@@H](O1)O[C@H](CO)[C@@H](S[C@@H]1O[C@H](C=NOCCN=[N+]=[N-])[C@H](O)[C@H](O)[C@H]1O)[C@@H]2O` as the molecule, how does the “Transglycosylation efficiency (%)” value (Endo S2 [1]) read?
The value was 87.5%.

What about the “Transglycosylation efficiency (%)” value (Endo S [2]) of the same molecule?
Its value is 21.1%.

What about the “Transglycosylation efficiency (%)” value (Endo Si [3]) of the same molecule?
The value was over 95%.

And the “Transglycosylation efficiency (%)” value (Endo Se2 [4])?
The value was 94.7%.

What about the “Transglycosylation efficiency (%)” value (Endo S2 [5]; 0.5 hours) of the same molecule?
The value was 33.1%.

What about the “Transglycosylation efficiency (%)” value (Endo S2 [5]; 1 hour) of the same molecule?
The value was 49.2%.

And the “Transglycosylation efficiency (%)” value (Endo S2 [5]; 2 hours)?
Its value is 67.7%.

What about the “Transglycosylation efficiency (%)” value (Endo S2 [5]; 3 hours) of the same molecule?
The value was 77.3%.

What about the “Transglycosylation efficiency (%)” value (Endo S2 [5]; 6 hours) of the same molecule?
Its value is 87.5%.

What about the “Transglycosylation efficiency (%)” value (Endo S [6]; 0.5 hours) of the same molecule?
Its value is 5.6%.

What about the “Transglycosylation efficiency (%)” value (Endo S [6]; 1 hour) of the same molecule?
The value was 9.3%.

And the “Transglycosylation efficiency (%)” value (Endo S [6]; 2 hours)?
The value was 13.0%.

And the “Transglycosylation efficiency (%)” value (Endo S [6]; 3 hours)?
The value was 15.7%.

What about the “Transglycosylation efficiency (%)” value (Endo S [6]; 6 hours) of the same molecule?
The value was 21.1%.

What about the “transglycosylation efficiency (in words)” value (Endo S [6]) of the same molecule?
Its value is “weak transglycosylation efficiency”.

What about the “Transglycosylation efficiency (%)” value (Endo Si [7]; 0.5 hours) of the same molecule?
Its value is 93.2%.

And the “Transglycosylation efficiency (%)” value (Endo Si [7]; 1 hour)?
The value was 95.2%.

And the “Transglycosylation efficiency (%)” value (Endo Si [7]; 2 hours)?
Its value is 95.5%.

And the “Transglycosylation efficiency (%)” value (Endo Si [7]; 3 hours)?
The value was 95.5%.

And the “Transglycosylation efficiency (%)” value (Endo Si [7]; 6 hours)?
The value was 95.5%.

And the “Transglycosylation efficiency (%)” value (Endo Se2 [8]; 0.5 hours)?
The value was 64.8%.

What about the “Transglycosylation efficiency (%)” value (Endo Se2 [8]; 1 hour) of the same molecule?
Its value is 82.1%.

And the “Transglycosylation efficiency (%)” value (Endo Se2 [8]; 2 hours)?
The value was 92.4%.

What about the “Transglycosylation efficiency (%)” value (Endo Se2 [8]; 3 hours) of the same molecule?
The value was 94.5%.

What about the “Transglycosylation efficiency (%)” value (Endo Se2 [8]; 6 hours) of the same molecule?
Its value is 94.7%.

Which results are given for `[N-]=[N+]=NCC1=N[C@H]2[C@@H](O1)O[C@H](CN=[N+]=[N-])[C@@H](O[C@@H]1O[C@H](CO)[C@H](O)[C@H](O)[C@H]1O)[C@@H]2O`?
Transglycosylation efficiency (%) (Endo S2 [1]): 6.0%; Transglycosylation efficiency (%) (Endo S [2]): 2.6%; Transglycosylation efficiency (%) (Endo Si [3]): 93.7%; Transglycosylation efficiency (%) (Endo Se2 [4]): 56.7%

What does the source list for `[N-]=[N+]=NCC1=N[C@H]2[C@@H](O1)O[C@H](CO)[C@@H](O[C@@H]1O[C@H](CO)[C@@H](O)[C@H](O)[C@@H]1O)[C@@H]2O`?
Transglycosylation efficiency (%) (Endo S2 [1]): 89.8%; Transglycosylation efficiency (%) (Endo S [2]): 56.7%; Transglycosylation efficiency (%) (Endo Si [3]): 77.7%; Transglycosylation efficiency (%) (Endo Se2 [4]): 89%

What does the source list for `CC1=N[C@H]2[C@@H](O1)O[C@H](CN=[N+]=[N-])[C@@H](O[C@@H]1O[C@H](C=NOCCN=[N+]=[N-])[C@H](O)[C@H](O)[C@H]1O)[C@@H]2O`?
Transglycosylation efficiency (%) (Endo S2 [1]): 82.7%; Transglycosylation efficiency (%) (Endo S [2]): 30.5%; Transglycosylation efficiency (%) (Endo Si [3]): 93.8%; Transglycosylation efficiency (%) (Endo Se2 [4]): >95%; Transglycosylation efficiency (%) (Endo S2 [5]; 0.5 hours): 22.2%; Transglycosylation efficiency (%) (Endo S2 [5]; 1 hour): 36.2%; Transglycosylation efficiency (%) (Endo S2 [5]; 2 hours): 51.9%; Transglycosylation efficiency (%) (Endo S2 [5]; 3 hours): 61.0%; Transglycosylation efficiency (%) (Endo S2 [5]; 6 hours): 82.7%; Transglycosylation efficiency (%) (Endo S [6]; 0.5 hours): 7.0%; Transglycosylation efficiency (%) (Endo S [6]; 1 hour): 12.3%; Transglycosylation efficiency (%) (Endo S [6]; 2 hours): 17.9%; Transglycosylation efficiency (%) (Endo S [6]; 3 hours): 22.1%; Transglycosylation efficiency (%) (Endo S [6]; 6 hours): 30.5%; transglycosylation efficiency (in words) (Endo S [6]): weak transglycosylation efficiency; Transglycosylation efficiency (%) (Endo Si [7]; 0.5 hours): 93.4%; Transglycosylation efficiency (%) (Endo Si [7]; 1 hour): 93.4%; Transglycosylation efficiency (%) (Endo Si [7]; 2 hours): 93.3%; Transglycosylation efficiency (%) (Endo Si [7]; 3 hours): 93.1%; Transglycosylation efficiency (%) (Endo Si [7]; 6 hours): 93.8%; Transglycosylation efficiency (%) (Endo Se2 [8]; 0.5 hours): 92.2%; Transglycosylation efficiency (%) (Endo Se2 [8]; 1 hour): 92.9%; Transglycosylation efficiency (%) (Endo Se2 [8]; 2 hours): 92.8%; Transglycosylation efficiency (%) (Endo Se2 [8]; 3 hours): 92.7%; Transglycosylation efficiency (%) (Endo Se2 [8]; 6 hours): 97.2%
